Amino acid sequences for entries named in this document (tags omitted). A change or cut given only in a name is not applied to a line headed by its entry.
UniProt Q9H4B4: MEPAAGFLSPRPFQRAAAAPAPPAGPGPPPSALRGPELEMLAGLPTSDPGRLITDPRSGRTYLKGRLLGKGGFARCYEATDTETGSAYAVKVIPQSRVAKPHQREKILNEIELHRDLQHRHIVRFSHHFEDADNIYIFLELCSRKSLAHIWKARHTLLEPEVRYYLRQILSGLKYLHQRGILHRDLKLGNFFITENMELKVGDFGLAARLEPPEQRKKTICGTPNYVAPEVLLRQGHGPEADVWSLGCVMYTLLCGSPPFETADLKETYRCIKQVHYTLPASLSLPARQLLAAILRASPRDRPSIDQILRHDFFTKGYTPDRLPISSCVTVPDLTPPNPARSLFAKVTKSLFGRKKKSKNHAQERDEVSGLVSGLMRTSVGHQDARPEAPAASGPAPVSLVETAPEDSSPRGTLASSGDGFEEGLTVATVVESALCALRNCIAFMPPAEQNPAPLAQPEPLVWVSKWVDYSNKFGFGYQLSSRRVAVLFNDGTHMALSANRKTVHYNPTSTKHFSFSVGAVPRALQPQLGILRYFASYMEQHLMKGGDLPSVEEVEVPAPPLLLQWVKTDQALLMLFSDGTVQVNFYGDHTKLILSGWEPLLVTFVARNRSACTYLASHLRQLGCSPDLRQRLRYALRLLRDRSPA
UniProt Q9NYY3: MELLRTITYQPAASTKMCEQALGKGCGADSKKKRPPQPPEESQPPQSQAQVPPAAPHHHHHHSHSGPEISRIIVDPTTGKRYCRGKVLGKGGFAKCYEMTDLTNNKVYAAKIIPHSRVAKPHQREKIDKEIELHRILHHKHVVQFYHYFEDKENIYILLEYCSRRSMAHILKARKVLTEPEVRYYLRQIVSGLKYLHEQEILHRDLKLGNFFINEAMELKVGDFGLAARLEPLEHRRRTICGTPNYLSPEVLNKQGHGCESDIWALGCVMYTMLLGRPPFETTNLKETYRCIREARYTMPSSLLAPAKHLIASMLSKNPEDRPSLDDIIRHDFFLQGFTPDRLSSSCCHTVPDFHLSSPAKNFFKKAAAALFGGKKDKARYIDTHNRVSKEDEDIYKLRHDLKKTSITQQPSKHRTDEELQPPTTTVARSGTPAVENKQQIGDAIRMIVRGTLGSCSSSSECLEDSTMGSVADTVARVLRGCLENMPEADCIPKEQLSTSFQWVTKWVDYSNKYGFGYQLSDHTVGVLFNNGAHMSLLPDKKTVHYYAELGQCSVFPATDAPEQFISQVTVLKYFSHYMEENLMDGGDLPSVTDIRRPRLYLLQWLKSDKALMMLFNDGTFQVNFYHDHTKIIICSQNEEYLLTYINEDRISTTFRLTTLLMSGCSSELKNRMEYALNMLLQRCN

According to patent publication US20110207796A1, “ALPHA-SYNUCLEIN KINASE” (Elan Pharma International Limited, priority 2008, published 2011):

Tests used:
[1] = molecular target: T1, PLK3 (Homo sapiens, UniProt Q9H4B4); assay: HEK-293 cells overexpressing synuclein and PLK3, inhibition of synuclein phosphorylation; assay type: cell-based; settings: HEK-293, Table 22
T1 construct: expressed in transfected cells; host or cells: HEK-293

[2] = molecular target: T2, PLK2 (Homo sapiens, UniProt Q9NYY3); assay: HEK-293 cells overexpressing synuclein and PLK2, inhibition of synuclein phosphorylation; assay type: cell-based; parameters: expressed in transfected cells; host or cells: HEK-293
[3] = molecular target: T2, PLK2; assay: in vitro biochemical assay of PLK2-driven synuclein phosphorylation

CC[C@@H]1C(=O)N(C)c2cnc(Nc3ccc(C(=O)NC4CCN(C)CC4)cc3OC)nc2N1C1CCCC1 [BI 2536, 4-[[(7r)-8-cyclopentyl-7-ethyl-5,6,7,8-tetrahydro-5-methyl-6-oxo-2-pteridinyl]amino]-3-methoxy-n-(1-methyl-4-piperidinyl)-benzamide]
1: Rank Order of Potency Based on Percent Inhibition of Synuclein Phosphorylation, Synuclein + PLK3 [1] | rank order of potency, Over-Expressed PLK2 (293) ([2]; 293 cells, Table 19) | Rank Order of Potency Based on Percent Inhibition of Synuclein Phosphorylation, Synuclein + PLK2 ([2]; HEK-293, Table 22) | rank order of potency, Straight Biochemical [3]
